These are literature values, as cited in patent US20220143026A1, “TRIPLE COMBINATION TO TREAT B-CELL MALIGNANCIES” (TG Therapeutics, Inc., priority 2020, published 2022).

One series concerns the target EGFR (Homo sapiens, UniProt P00533). Conditions: ratio of IC50s; cited from earlier work.
A further series relates to whole kinome. Conditions: compared with ibrutinib; cited from earlier work.

Consider `CC#CC(=O)N1CC[C@@H](n2cc(-c3ccc(Oc4c(F)cccc4F)cc3)c3c(N)n[nH]c(=O)c32)C1` [TG-1701, (R)-4-amino-1-(1-(but-2-ynoyl)pyrrolidin-3-yl)-3-(4-(2,6-difluorophenoxy)phenyl)-1,6-dihydro-7H-pyrrolo[2,3-d]pyridazin-7-one], for which the “fold less active on EGFR compared to BTK” value at EGFR is 90 fold. Also, in the series with whole kinome, the “selectivity for BTK in an in vitro whole kinome screening” value was “improved selectivity for BTK”.
